# From PubChem BioAssay AID652257 (The Scripps Research Institute Molecular Screening Center, 2013)
# Sequences of proteins named here, by UniProt entry; tags and fusion partners are left off.
# UniProt Q99873, whole entry, looked up: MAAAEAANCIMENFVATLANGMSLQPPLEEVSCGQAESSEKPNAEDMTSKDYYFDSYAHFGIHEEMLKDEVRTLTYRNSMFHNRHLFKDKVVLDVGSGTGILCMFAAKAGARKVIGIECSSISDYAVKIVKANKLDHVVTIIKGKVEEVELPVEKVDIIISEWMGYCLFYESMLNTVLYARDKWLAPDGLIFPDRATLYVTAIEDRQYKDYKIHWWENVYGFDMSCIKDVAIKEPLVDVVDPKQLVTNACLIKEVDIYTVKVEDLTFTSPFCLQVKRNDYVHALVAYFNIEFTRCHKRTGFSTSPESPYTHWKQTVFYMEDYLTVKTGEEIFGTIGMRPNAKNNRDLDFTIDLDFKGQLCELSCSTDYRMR
# Only a part is listed here, and it is no random draw. The source made the active and inactive calls.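 How the source made its calls: active means inhibition above about 21% made by adding two undisclosed values (limit read from the data); inactive means the rest.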
# Target: Protein arginine N-methyltransferase 1 (Homo sapiens) (UniProt Q99873)
# Assay: PRMT1 methyltransferase inhibitors, primary screen, biochemical, fluorescence polarization (AID 652257)
# Settings: recombinant PRMT1, activity-based probe fluorescence polarization; at 2.79 µM; stronger effect = higher value
row,Compound,inhibition
1,O=C(O)COc1ccc([As](=O)(O)O)cc1[N+](=O)[O-],inactive: -3%
2,Nc1ccccc1[As](=O)(O)c1ccccc1,inactive: 0.12%
3,NC(=O)Nc1ccc([As](=O)(O)O)cc1,inactive: -3.12%
4,CN(C(=O)Cc1ccccc1)[C@@H]1CC[C@]2(CCCO2)C[C@H]1N1CCCC1,inactive: -2.23%
5,CCOP1(=S)c2c(C)nn(CCC#N)c2N=C(c2ccc(F)cc2)N1C (stereo unspecified),inactive: -0.38%
6,N#CCCN(C(=O)COC(=O)C(O)(c1ccccc1)c1ccccc1)c1ccc(F)cc1,inactive: -2.2%
7,CN(C(=O)Cc1ccc(Cl)c(Cl)c1)[C@H]1CC[C@@]2(CCCO2)C[C@@H]1N1CCCC1,inactive: 0.78%
8,CN(C)C(=O)c1cc([N+](=O)[O-])cc2c1-c1c(cc([N+](=O)[O-])cc1[N+](=O)[O-])C2=O,inactive: 5.74%
9,O=[N+]([O-])c1ccc2c(c1)nnn2O,inactive: 0.89%
10,O=C(OC1CN2CCC1CC2)c1ccc(Cl)cc1 (stereo unspecified),inactive: 5.99%
11,CS(=O)(=O)c1ccc(Cl)c(NC(=O)COC(=O)C(O)(c2ccccc2)c2ccccc2)c1,inactive: -2.6%
12,COc1cc(C(=O)NCC2(N3CCOCC3)CCCCC2)cc(Cl)c1OC(C)C,inactive: 3.17%
13,O=[As](O)(O)c1cccnc1,inactive: -3.61%
14,O=[As](O)(c1cccc(O)c1)c1cccc(O)c1,inactive: -2.59%
15,Cc1cccc(OCC(=O)OC2CN3CCC2CC3)c1 (stereo unspecified),inactive: -0.28%
16,Cc1ccc(NCCc2c([N+](=O)[O-])cc([N+](=O)[O-])cc2[N+](=O)[O-])cc1,inactive: 1.4%
17,Nc1cccc2c([As](=O)(O)O)cccc12,active: 55.5%
18,CCCOP(=S)(Nc1nc(N)cc(=O)[nH]1)OCCC,inactive: -3.75%
19,CCOP(=O)(Nc1cccc2ccccc12)OCC,inactive: -0.99%
20,COc1cc(C2NCCC3(OCCO3)C2(C)C)cc(OC)c1OC (stereo unspecified),inactive: -3.19%
21,CCOP(=O)(NC(=NC(C)c1ccccc1)NC(C)c1ccccc1)OCC (stereo unspecified),inactive: -0.46%
22,CCC1=CC2Cc3nc4ccc(Cl)cc4c(N)c3C(C1)C2 (stereo unspecified),inactive: 3.04%
23,O=P1(Nc2ccccn2)COc2ccccc2OC1,inactive: -1.13%

row,Compound,inhibition
1,CN(CCCl)Cc1cc(Cl)c(NC2=NCCN2)c(Cl)c1,inactive: 0.52%
2,CCOP(=O)(Nc1ccc(C)cn1)OCC,inactive: -1.06%
3,CC(C)(C)C(=O)NC(Sc1ncccn1)C(Cl)(Cl)Cl (stereo unspecified),active: 47.2%
4,Clc1n[nH]nc1-c1nn[nH][15n]1,inactive: 0.98%
5,O=P1(N(CCCl)CCCl)NCCC(C(F)(F)F)O1 (stereo unspecified),inactive: 4.23%
6,COc1ccccc1CNC(=O)COC(=O)C(O)(c1ccccc1)c1ccccc1,inactive: 1.13%
7,CN(C(=O)Cc1ccc(Cl)c(Cl)c1)C1CCCC[C@@H]1N1CCCC1 (stereo partly specified),inactive: -2.3%
8,CN(C(=O)Cc1ccc(Cl)c(Cl)c1)[C@@H]1CCCC[C@H]1N1CCCC1,inactive: -1.28%
9,CC(C)/C=N\N=C(\N)N[N+](=O)[O-],inactive: 0.86%
10,CC1(CBr)Cn2c(nc3ccccc3c2=O)S1 (stereo unspecified),inactive: 9.02%
11,Cc1ccc(C(=O)OC2CN3CCC2CC3)cc1 (stereo unspecified),inactive: 1.4%
12,CC1CCC(C(C)C)C(OP(=O)(Nc2ccccn2)c2ccccc2)C1 (stereo unspecified),inactive: 1.87%
13,Cc1nn(-c2ccccc2)c2c1P(=O)(N1CCOCC1)N(C)C(c1ccccc1)=N2 (stereo unspecified),inactive: 1.62%
14,CN(C)C1(CNC(=O)c2ccc(S(C)(=O)=O)cc2)CCCCC1,inactive: 3.17%
15,CCCC1OP(=O)(Nc2ccccc2)OCC1CC (stereo unspecified),inactive: 1.86%
16,O=C(/C=C/c1ccccc1)OC1CN2CCC1CC2 (stereo unspecified),inactive: -1.22%
17,Cc1ccc(S(=O)(=O)N(CCCN)CCCc2c(C)nc(N)[nH]c2=O)cc1,inactive: 1.63%
18,O=P1(Nc2ncccn2)COc2ccccc2OC1,inactive: 0.66%
19,Nc1cccc([As](=O)(O)c2ccccc2)c1,inactive: -8.43%
20,NS(=O)(=O)c1cccc(NC(=O)COC(=O)C(O)(c2ccccc2)c2ccccc2)c1,inactive: -0.93%
21,O=P1(Nc2ccc(Br)cn2)COc2ccccc2OC1,inactive: 0%
22,Cc1ccc(OCC(=O)OC2CN3CCC2CC3)cc1 (stereo unspecified),inactive: -0.24%
23,O=[As](O)(c1cccs1)c1cccs1,inactive: 1.76%
